Assay results from ChEMBL document CHEMBL1158559, “Chromone-2- and -3-carboxylic acids inhibit differently monoamine oxidases A and B” (Bioorg Med Chem Lett, 2010).

Chains of the proteins cited; added tags and fusions are not shown.
UniProt P27338, whole entry: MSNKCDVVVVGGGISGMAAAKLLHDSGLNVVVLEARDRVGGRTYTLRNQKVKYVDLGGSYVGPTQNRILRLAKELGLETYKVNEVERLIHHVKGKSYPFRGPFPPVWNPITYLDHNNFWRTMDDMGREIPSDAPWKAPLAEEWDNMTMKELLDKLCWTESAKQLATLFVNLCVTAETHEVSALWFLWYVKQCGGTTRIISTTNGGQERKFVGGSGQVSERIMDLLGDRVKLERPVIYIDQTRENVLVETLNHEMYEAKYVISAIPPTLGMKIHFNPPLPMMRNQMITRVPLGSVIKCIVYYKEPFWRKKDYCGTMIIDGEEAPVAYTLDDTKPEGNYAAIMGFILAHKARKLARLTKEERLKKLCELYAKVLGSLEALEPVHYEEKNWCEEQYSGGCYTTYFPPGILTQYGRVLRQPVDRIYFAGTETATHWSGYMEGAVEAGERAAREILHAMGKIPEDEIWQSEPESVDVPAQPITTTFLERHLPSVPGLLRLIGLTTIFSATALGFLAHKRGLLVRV

Biological target: Amine oxidase [flavin-containing] B (Homo sapiens, UniProt P27338)

For `O=C(O)c1coc2ccccc2c1=O`, the IC50 was 0.048 µM.
